Laboratory results: patent US20160367502A1, “FILM COATED PELLETS” (RATIOPHARM GMBH, priority 2012, published 2016)

Assay: Solubility in water at 25° C.
Type: physicochemical
Method: If it is not known, it can be determined by conventional methods. […] The amount or concentration of the active pharmaceutical ingredient in the solution is determined by analytical techniques known in the art.

Substance: sitagliptin hydrogen sulfate
- Solubility of sitagliptin salts in water at 25° C.: >300 mg/mL
